Assay results published in patent publication US10030027B2, “Soluble guanylate cyclase stimulators” (MERCK SHARP & DOHME CORP., priority 2015, dated 2018).

Assays:
[1] = target: human recombinant sGC enzyme (Homo sapiens (Human), UniProt Q02108+Q02153); test: Size Exclusion Chromatography (SEC) competition binding assay using [3H] Ex-77B as the radioligand; conditions: [3H] Ex-77B radioligand, 24 hours at 37° C.
sGC α1/β1 heterodimer = sGC α1/β1 heterodimer (Homo sapiens (Human), UniProt Q02108+Q02153); test: Cell-based sGC functional assay (cyclic GMP assay for sGC activator: CASA assay); conditions: read-out: IP; inflection point, 4P fit; CHO-K1/sGC cells

Structure (SMILES)	Ki [1] [nM]	EC50 (sGC α1/β1 heterodimer) [nM]
CC1(c2nc(C3CC3C(=O)O)cs2)C(=O)Nc2nc(-c3nn(CCC(F)(F)C(F)(F)F)c4ncccc34)nc(N)c21 (stereo not shown)	0.755	733
CC1(C2CCC(CCC(=O)O)CC2)C(=O)Nc2nc(-c3nn(Cc4cccc(F)c4)c4cc(Cl)ccc34)nc(N)c21 (single isomer, unassigned) [263AA]	0.235	110
